Rev-erbA mod: Rev-erb alpha (human) modulation. P20393. Rev-erbα–FITC-DNA binding, fluorescence polarization, 90 min. activity, % at 10 µM. hit rate 0.79% among 370,000. AID 1259318;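 active = activity above about 14%, limit read from the data; passing the limit was not always enough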;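 also: 0% = DMSO wells with 35 nM protein and 100% = DMSO wells with 750 nM protein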
PDI turbidity: blocks human protein disulfide isomerase activity; hit rate 0.052% among 350,000; PDI insulin aggregation turbidity, A650, 90 min; inhibition, % at 10 µM;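 active = mean inhibition across replicates of 30% or more, whatever share of single replicates reach that level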
ERp5 block: inhibitors of human ERp5; ERp5 insulin aggregation, absorbance 650 nm, 90 min; hit rate 0.05% among 350,000; inhibition, % at 9.99 µM;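 active = mean replicate inhibition above about 25%, with every replicate also reaching it, limit read from the data, passing the limit was not always enough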
UUG fidelity: modulators of start codon recognition fidelity in yeast; S. cerevisiae UUG-firefly luciferase reporter, luminescence/redox ratio; activity score, % at 18.7 µM; hit rate 0.13% among 350,000; AID 602363;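 active = replicate mean at a twofold rise or more, about +100% in these data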;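 note: firefly luciferase made from a UUG start codon reports start codon fidelity; reporter light over untreated wells divided by growth signal over untreated wells; some hits fall short of that in this replicate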
INS-1E GSIS act: primary screen for activators of insulin secretion dependent on glucose, INS-1E cells, GLuc reporter luminescence | activation, % at 16.6 µM | INS-1E GLuc reporter insulin secretion, 2-3 h | hit rate 0.61% among 370,000 | AID 743287;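 active = lowest replicate activation of at least 40%, so every replicate reaches that level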;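 also: 0% = median of neutral control wells and 100% = median of IBMX positive control wells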
SMARCA2 act: activators of SMARCA2 function; MG213 cells, MMTV-luciferase reporter, dexamethasone, overnight; activation, % at 9.1 µM; hit rate 1% among 370,000; AID 652017; in the data active = activation above about 7.8%;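 also: 0% = vehicle wells and 100% = reference activator wells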
SMARCA2 act conf: SMARCA2 activation, confirmation screen. shares compounds with SMARCA2 act. MG213 cells, MMTV-luciferase with dexamethasone, luminescence, overnight; MG213 cells expressing E1A, Rb sequestered; DMSO wells 0%, reference activator 100%. activation, % at 9.1 µM. hit rate 30% among 3,500;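 active = activation above its plate's cutoff, the mean activation of tested wells plus 3 SD, cut at about 7.9% in these data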
VP16 Luc act: counter-screen for SMARCA2 activators: GAL4-VP16 luciferase reporter activation; activation, % at 9.1 µM; shares compounds with SMARCA2 act; hit rate 41% among 3,500; HEK293 GAL4-VP16 pG5luc reporter, luciferase luminescence; scaled: DMSO wells 0%, SAHA wells 100%;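 active = activation above the solvent-only control well mean plus 3 SD, averaged across control plates, cut at about 5.2% in these data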
Numbers without * were called inactive; . = no result. Only some compounds are listed: those with a hit (about 2.1% of all), similar ones and a draw of the others.

SMILES	Rev-erbA mod	PDI turbidity	ERp5 block	UUG fidelity	INS-1E GSIS act	SMARCA2 act	SMARCA2 act conf	VP16 Luc act
COc1ccc(CNCCC2(Cc3ccccc3)CC(C)N(C)CC2C)cc1OC (stereo not drawn)	-2	-4	-6	.	3	8.3*	5	2
O=C(O)CCC(=O)OCc1c(-c2ccccc2)ncc2ccccc12	-2	4	5	-10	0	1	.	.
O=C(OCc1c(-c2ccccc2)ncc2ccccc12)N1CCOCC1	-2	-11	16	-15	22	9.6*	7	2
CCCC#Cc1cnc2c(c1)C(=O)N([C@H](C)CO)C[C@@H](C)[C@H](CN(C)Cc1ccncc1)O2	.	.	-2	-5	29	.	.	.
O=C(C[C@H]1C[C@@H]2c3cc(NS(=O)(=O)c4ccccc4)ccc3O[C@@H]2[C@@H](CO)O1)N1CCCCC1	.	.	-8	-2	-12	.	.	.
Cn1sc(NC(=O)c2ccc(Cl)cc2)nc1=O	1	-7	4	0	7	8.4*	3	11*
Cc1noc(C)c1NC(=O)Nc1ccc2c(c1)C(=O)N([C@@H](C)CO)C[C@@H](C)[C@@H](CN(C)Cc1ccccc1)O2	.	.	-5	-3	14	.	.	.
COc1ccc(CCN2CC(C(=O)NCCc3ccccc3)CC2=O)cc1OC (stereo not drawn)	-1	1	-1	3	.	8.7*	3	3
COc1ccc2c(c1)[nH]c1c(=O)n(Cc3ccncc3)cnc12	-3	0	6	-6	-2	8.6*	3	1
COc1ccc(S(=O)(=O)N2C[C@H](O)COC[C@H]3O[C@H](CC(=O)N[C@H]4CCN(Cc5ccccc5)C4)CC[C@@H]32)cc1	.	.	.	.	4	.	.	.
OCC1OC(n2cnc3c(NCCc4ccccc4)ncnc32)C(O)C1O (stereo not drawn)	2	1	5	-14	2	11*	5	7.8*
C[C@@H]1NC(=O)/C(=C\c2ccccc2Br)NC1=O	-1	-14	3	-1	-3	-1	.	.
Cc1ccc(/C=C2/NC(=O)[C@H](C)NC2=O)cc1	5	1	0	-16	1	8.4*	2	3
N#CC1=C(S)N(c2ccccc2)C(c2cccs2)NC1=O (stereo not drawn)	.	8	-1	-34	-45	1	.	.
Cc1ccc(N2C(S)=C(C#N)C(=O)NC2c2cccs2)cc1 (stereo not drawn)	2	1	3	.	-21	8.0*	2	0

Shown as labelled records: entries from further up.
> COc1ccc2c(c1)[nH]c1c(=O)n(Cc3ccncc3)cnc12
  Rev-erbA mod: -3
  PDI turbidity: 0
  ERp5 block: 6
  UUG fidelity: -6
  INS-1E GSIS act: -2
  SMARCA2 act: 8.6*
  SMARCA2 act conf: 3
  VP16 Luc act: 1

> COc1ccc(S(=O)(=O)N2C[C@H](O)COC[C@H]3O[C@H](CC(=O)N[C@H]4CCN(Cc5ccccc5)C4)CC[C@@H]32)cc1
  Rev-erbA mod: .
  PDI turbidity: .
  ERp5 block: .
  UUG fidelity: .
  INS-1E GSIS act: 4
  SMARCA2 act: .
  SMARCA2 act conf: .
  VP16 Luc act: .

> OCC1OC(n2cnc3c(NCCc4ccccc4)ncnc32)C(O)C1O (stereo not drawn)
  Rev-erbA mod: 2
  PDI turbidity: 1
  ERp5 block: 5
  UUG fidelity: -14
  INS-1E GSIS act: 2
  SMARCA2 act: 11*
  SMARCA2 act conf: 5
  VP16 Luc act: 7.8*

> C[C@@H]1NC(=O)/C(=C\c2ccccc2Br)NC1=O
  Rev-erbA mod: -1
  PDI turbidity: -14
  ERp5 block: 3
  UUG fidelity: -1
  INS-1E GSIS act: -3
  SMARCA2 act: -1
  SMARCA2 act conf: .
  VP16 Luc act: .

(list continues)
SMILES	Rev-erbA mod	PDI turbidity	ERp5 block	UUG fidelity	INS-1E GSIS act	SMARCA2 act	SMARCA2 act conf	VP16 Luc act
COc1cc(/C=N/n2cnnc2)ccc1OCc1ccccc1	-1	4	.	-18	.	8.1*	5	0
COc1ccc(C(c2nnnn2C(C)(C)C)N2CCN(c3nc4ccccc4s3)CC2)cc1 (stereo not drawn)	4	14	.	-6	-5	9.2*	-1	1
CNc1ccc(/C=C(\C#N)c2ccccn2)cc1[N+](=O)[O-]	0	-4	4	-13	-10	13*	13*	8.0*
N#C/C(=C\c1ccc(Cl)c([N+](=O)[O-])c1)c1ccccn1	.	-3	-2	.	2	1	.	.
CN1C(=O)c2cc(NS(C)(=O)=O)ccc2OC[C@H]2O[C@@H](CC(=O)NCc3ccc(-c4ccccc4)cc3)CC[C@H]21	.	.	-2	.	-4	.	.	.
CCN(CC)C(=O)CSc1nc(N)c2c3c(sc2n1)CC(C)CC3 (stereo not drawn)	-7	-4	.	-15	-12	8.3*	4	8.1*
O=C(NNC(=O)C1CC2CCC1C2)c1sc2ccccc2c1Cl (stereo not drawn)	1	-2	.	.	-25	8.4*	5	5
COCC1CCN(Cc2nc(COc3ccccc3)no2)C1 (stereo not drawn)	0	-1	-3	32	-12	8.3*	-3	1
COCC1CCN(Cc2nc(-c3cccs3)no2)C1 (stereo not drawn)	-4	11	1	.	2	13*	2	6.0*
CC(C)Cc1cc(C(=O)NCc2cccs2)no1	-1	.	-1	-22	.	13*	7	14*
O=C(NCc1ccccc1)c1noc2c1CCCC2	1	10	.	-23	.	5	.	.
CC(C)c1cc(C(=O)NCc2ccco2)no1	-4	-10	-1	-8	.	9.0*	8	7.3*
O=C(NCc1ccco1)c1noc2c1CCCCC2	-1	4	.	-12	4	10*	4	1
CCC(=O)N1[C@H](C(=O)NC2CCCC2)[C@@H](CO)[C@@H]2Cn3c(ccc(C4=CCCC4)c3=O)[C@@H]21	.	.	2	.	10	.	.	.
CC1CCCN(S(=O)(=O)c2ccc3[nH]c(=O)cc(C(=O)NCCCN4CCCCCC4)c3c2)C1 (stereo not drawn)	-12	9	-1	6	.	-4	.	.
CCCCN(C)CCCNC(=O)c1cc(=O)[nH]c2ccc(S(=O)(=O)N3CCCCC3C)cc12 (stereo not drawn)	-3	4	5	.	-6	8.2*	0	1
COc1cccc2sc3cc(C#Cc4ccccn4)ccc3c(=O)c12	-8	-2	2	4	22	4	.	.
O=c1c2ccccc2oc2cc(C#Cc3ccccn3)ccc12	12	10	9	-13	-7	8.0*	3	9.6*
COc1cccc2oc3ccc(C#Cc4ccccn4)cc3c(=O)c12	-4	-2	-2	-7	8	10*	3	10*
Cc1cc(OCC(=O)OCC(=O)NC2CCCC2)ccc1Cl	-1	-1	-2	-14	0	11*	0	2
CN(CCC#N)C(=O)COC(=O)c1ccccc1C(=O)c1ccc(Cl)c([N+](=O)[O-])c1	1	0	1	.	25	9.5*	-10	3
O=C(COC(=O)c1ccccc1C(=O)c1ccc(Cl)c([N+](=O)[O-])c1)NC1CCCCCC1	-3	0	.	-1	.	9.4*	-13	-1
O=C(COC(=O)c1ccccc1)NC1CCCC1	2	5	6	-16	-11	10*	4	2
CC(C)N(C(=O)COC(=O)c1ccccc1C(=O)c1ccc(Cl)c([N+](=O)[O-])c1)C(C)C	-4	5	4	.	-19	1	.	.
CC(C)Oc1ccc(C(=O)OCC(=O)c2ccc[nH]2)cc1	4	-5	10	-14	-30	12*	9.4*	7.3*
